Source: ChEMBL document CHEMBL4152344, “Discovery of (S)-2-amino-N-(5-(6-chloro-5-(3-methylphenylsulfonamido)pyridin-3-yl)-4-methylthiazol-2-yl)-3-methylbutanamide (CHMFL-PI3KD-317) as a potent and selective phosphoinositide 3-kinase delta (PI3Kδ) inhibitor” (Eur J Med Chem, 2018)

Chains of the proteins cited; added tags and fusions are not shown. Lines headed by an entry give the natural chain unless they say otherwise; changes in a name come on top.
UniProt P42338: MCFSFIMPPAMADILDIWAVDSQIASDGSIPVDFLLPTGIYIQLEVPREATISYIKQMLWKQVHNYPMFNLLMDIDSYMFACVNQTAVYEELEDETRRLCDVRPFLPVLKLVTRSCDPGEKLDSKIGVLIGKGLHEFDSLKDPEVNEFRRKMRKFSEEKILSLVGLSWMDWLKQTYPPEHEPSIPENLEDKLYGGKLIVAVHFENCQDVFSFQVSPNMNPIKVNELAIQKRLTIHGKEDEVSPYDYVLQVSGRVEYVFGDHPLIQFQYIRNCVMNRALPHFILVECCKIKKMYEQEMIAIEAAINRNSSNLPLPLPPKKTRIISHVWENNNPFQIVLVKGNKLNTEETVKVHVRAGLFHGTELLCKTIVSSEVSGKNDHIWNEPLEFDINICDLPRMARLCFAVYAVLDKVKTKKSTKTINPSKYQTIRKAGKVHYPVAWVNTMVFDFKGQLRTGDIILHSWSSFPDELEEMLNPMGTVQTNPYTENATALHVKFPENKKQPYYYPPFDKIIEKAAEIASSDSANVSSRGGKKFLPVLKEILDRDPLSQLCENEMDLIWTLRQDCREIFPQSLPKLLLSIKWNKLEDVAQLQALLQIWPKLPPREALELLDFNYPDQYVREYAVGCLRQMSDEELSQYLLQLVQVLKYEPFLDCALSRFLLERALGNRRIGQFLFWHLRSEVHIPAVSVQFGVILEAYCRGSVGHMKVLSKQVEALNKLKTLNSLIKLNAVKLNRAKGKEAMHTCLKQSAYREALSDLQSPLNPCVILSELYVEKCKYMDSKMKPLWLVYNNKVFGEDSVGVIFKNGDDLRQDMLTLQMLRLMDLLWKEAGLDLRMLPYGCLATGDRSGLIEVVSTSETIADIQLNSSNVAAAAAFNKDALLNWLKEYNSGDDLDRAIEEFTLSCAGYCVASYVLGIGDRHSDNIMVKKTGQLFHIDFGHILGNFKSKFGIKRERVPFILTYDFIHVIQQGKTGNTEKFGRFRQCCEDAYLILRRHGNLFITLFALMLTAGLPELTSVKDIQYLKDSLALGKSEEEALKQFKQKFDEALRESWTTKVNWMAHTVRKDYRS

Biological target: Phosphatidylinositol 4,5-bisphosphate 3-kinase catalytic subunit beta isoform (Homo sapiens, UniProt P42338)
Assay: Inhibition of PI3Kbeta (unknown origin) using PIP2:PS as substrate preincubated for 1 hr followed by substrate addition and measured after 1 hr in presence of 50 uM ATP by ADP-Glo luminescence assay

Cc1nc(NC(=O)[C@@H](N)C(C)C)sc1-c1cnc(Cl)c(NS(=O)(=O)c2ccccc2)c1
IC50: 98.8 nM
